Reference: ChEMBL document CHEMBL4396878, “Mechanisms of Specific versus Nonspecific Interactions of Aggregation-Prone Inhibitors and Attenuators” (J Med Chem, 2019)

Assays:
[1] = molecular target: T1, Rap guanine nucleotide exchange factor 3 (Homo sapiens) (UniProt O95398); experiment: Binding affinity to human EPAC1 cAMP binding domain (149 to 318 residues) assessed as intensity loss using aggregate form of compound by [15N-1H]HSQC spectroscopic analysis
T1 sequence (whole entry): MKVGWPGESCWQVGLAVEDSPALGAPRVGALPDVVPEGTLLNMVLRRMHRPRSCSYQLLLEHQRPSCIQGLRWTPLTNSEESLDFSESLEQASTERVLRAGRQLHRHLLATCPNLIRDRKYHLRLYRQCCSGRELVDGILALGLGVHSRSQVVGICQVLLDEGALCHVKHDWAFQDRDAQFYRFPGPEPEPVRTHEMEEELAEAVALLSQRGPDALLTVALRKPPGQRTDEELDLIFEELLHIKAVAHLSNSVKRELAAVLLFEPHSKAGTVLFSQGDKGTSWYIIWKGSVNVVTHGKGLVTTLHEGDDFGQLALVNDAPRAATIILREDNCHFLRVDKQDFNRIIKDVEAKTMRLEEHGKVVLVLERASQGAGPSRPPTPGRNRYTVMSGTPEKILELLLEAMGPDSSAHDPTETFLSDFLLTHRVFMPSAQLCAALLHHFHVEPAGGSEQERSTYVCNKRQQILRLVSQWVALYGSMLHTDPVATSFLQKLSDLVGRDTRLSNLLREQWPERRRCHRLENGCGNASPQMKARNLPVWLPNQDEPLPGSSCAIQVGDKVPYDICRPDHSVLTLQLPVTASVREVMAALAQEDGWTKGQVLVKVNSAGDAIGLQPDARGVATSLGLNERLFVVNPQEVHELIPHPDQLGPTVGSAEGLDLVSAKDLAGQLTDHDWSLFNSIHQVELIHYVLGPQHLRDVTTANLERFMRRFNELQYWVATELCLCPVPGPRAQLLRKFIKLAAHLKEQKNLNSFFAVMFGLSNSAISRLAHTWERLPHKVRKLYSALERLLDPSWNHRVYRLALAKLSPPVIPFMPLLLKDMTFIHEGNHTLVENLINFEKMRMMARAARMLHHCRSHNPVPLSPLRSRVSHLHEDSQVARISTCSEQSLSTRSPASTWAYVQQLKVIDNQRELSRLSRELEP

[2] = molecular target: T1, Rap guanine nucleotide exchange factor 3 (Homo sapiens); experiment: Ratio of apparent Kd for binding affinity to human EPAC1 cAMP binding domain (149 to 318 residues) in presence of human serum albumin to apparent Kd for binding affinity to human EPAC1 cAMP binding domain (149 to 318 residues) in absence of human serum albumin

Activity [1]: inactive | Ratio [2]: 5 to 10
SMILES: C[C@@H]1CCc2c(cc(Br)c(F)c2Br)N1C=O

The source made the active and inactive calls. No cut-off for these calls is given here.
